From US11440939B2, “Anticancer peptides” (IDP DISCOVERY PHARMA, S.L., priority 2017, dated 2022)

Tests used:
Assay type in all cases: cell-based
NCI-H187 = conditions: 72 h
Method: NCI-H187, epithelial (small cell lung cancer, SCLC), ATCC-CRL-5804;
(§1) Cell line MCF-7 was cultured in incubator under CO2 (6%) at 37° C. in DMEM high glucose (Dulbecco's Modified Eagle Solution, Gibco-BRL 31966-21) medium with 10% fetal bovine serum inactivated (FBS) (Gibco-BRL 10106-169). Cell lines HL-60, NCI-H524, NCI-H526, NCI-H69, NCI-H82, NCI-H187 and H5B were cultured in an incubator at 37° C. in RPMI-1640 (Sigma R8758) medium with 10% of fetal bovine serum inactivated (FBS) and 2 mM glutamine (Sigma G7513). Cell line NCI-H510A was cultured in incubator in F12K medium with 10% of fetal bovine serum inactivated (FBS). […]
(§2) During the amplification step and the assays, adherent cells were rinsed with DPBS (Dulbecco's Phosphate Buffered Saline, Sigma D1283) three times and afterward treated for 5 minutes with trypsin ([…]) (Gibco-BRL, 15400054) in solution of DPBS at 37° C., and, once detached, transferred in the culturing medium. […] Cells were counted in a Neubauer chamber after labelling with Tripan-Blue. […]
(§3) Cells were incubated during 72 h in incubator under CO2 atmosphere at 37° C. Cell viability was measured by means of MTT (3-(4,5-dimethylthiazol-2-yl)-2,5-diphenyltetrazolium bromide) assay, Alamar Blue® (Biosource DAL1100) and Hexosaminidase activity test, consecutively, following manufacturer instructions.
(§4) MTT: 1. […] Absorbance at 570 nm was finally measured. […]

NCI-H82 = conditions: 72 h
Method: NCI-H82, epithelial (small cell lung cancer, SCLC), ATCC-CRL-5811;
as §1, §2, §3, §4

cancer cell lines = experiment: Inhibition of cancer cell proliferation, general statements
Method: MCF-7, NCI-H187, NCI-H69, NCI-H526 and H5B cells were seeded at a density of 5000 cells/well; NCI-H524 and NCI-H82 were seeded at a density of 2500 cells/well; HL-60 and NCI-H510A at 10000 cells/well in 100 μl of medium in 96 well plates. After 24 h, the compounds to be tested were added to calculate the dose/response curve at the starting concentration of 100 μM with serial dilutions (1:1). Controls were the untreated cells. Each experiment was performed in triplicate.
as §3
Data analysis was performed calculating the percentage of cell viability normalized vs. the values of negative control, which was considered equal to 100%. The dose/response curve was fitted through the sigmoidal equation dose-response (variable slope) and the EC50 values were calculated as follow: Y=Bottom+(Top−Bottom)/(1+10^{[(Log EC50−X)*HillSlope]},

How did the EC50 (NCI-H187) turn out when `CC(C)C[C@H](NC(=O)[C@H](CC(N)=O)NC(=O)[C@@H](NC(=O)[C@H](CC(C)C)NC(=O)[C@H](CCCCN)NC(=O)[C@@H](NC(=O)[C@@H](N)CCCNC(=N)N)C(C)C)C(C)C)C(=O)NCC(=O)N[C@@H](Cc1ccccc1)C(=O)N[C@@H](C)C(=O)N[C@H](C(=O)N[C@@H](CC(C)C)C(=O)N[C@@H](CCCNC(=N)N)C(=O)N[C@@H](CCC(=O)O)C(=O)N[C@@H](Cc1c[nH]cn1)C(=O)N[C@H](C(=O)N1CCC[C@H]1C(N)=O)C(C)C)[C@@H](C)O` [LH01, reference compound] was run?
Its EC50 is greater than 100 µM.

And the EC50 (NCI-H82)?
Its EC50 is greater than 100 µM.

And the “inhibition of cancer cell proliferation (in words)” value (cancer cell lines)?
The value was “not effective”.
